Data as given in US20160008366A1 (published 2016).

Assay: Quantification of PCI-32765 and PCI-45227 in human plasma from subject 01-001BF (LC-MS/MS)
Format: in vivo
Conditions: patient 01-001BF, ibrutinib 560 mg daily

C=CC(=O)N1CCC[C@@H](n2nc(-c3ccc(Oc4ccccc4)cc3)c3c(N)ncnc32)C1 [PCI-32765, (R)-1-(3-(4-amino-3-(4-phenoxyphenyl)-1H-pyrazolo[3,4-d]pyrimidin-1-yl)piperidin-1-yl)prop-2-en-1-one]
Calculated Concentration in plasma (1 Month, 3 h): 204 ng/mL | Calculated Concentration in plasma (Day 1, 2 h): 499 ng/mL | Calculated Concentration in plasma (Day 1, pre-dose (0 h), BQL = below quantification limit (1 ng/mL)): BQL | Calculated Concentration in plasma (Day 1, pre-dose (0 h), BQL = below quantification limit (1 ng/mL), listed as Ibrutinib): BQL^b
